Molecules are shown by their SMILES. The list shows a part of the results, in another mix than the full data. Active and inactive are the calls of the source.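 How the source made its calls: active means activation above a per-plate cutoff, the mean activation of sample wells on that plate plus 3 SD (cut at about 8% in these data); inactive means the rest.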

Protein sequences, listed by entry. Tags and fused reporters are not part of them.
UniProt P32245, whole entry: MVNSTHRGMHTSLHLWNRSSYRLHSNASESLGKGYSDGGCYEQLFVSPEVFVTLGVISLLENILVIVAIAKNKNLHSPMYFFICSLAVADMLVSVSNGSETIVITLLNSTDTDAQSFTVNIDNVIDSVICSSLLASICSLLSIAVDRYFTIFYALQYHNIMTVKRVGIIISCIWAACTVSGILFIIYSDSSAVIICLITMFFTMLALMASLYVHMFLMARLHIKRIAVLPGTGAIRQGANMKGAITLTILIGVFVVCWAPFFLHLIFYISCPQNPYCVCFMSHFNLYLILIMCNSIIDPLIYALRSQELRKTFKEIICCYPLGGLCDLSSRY

Two molecules from PubChem BioAssay AID540308 (The Scripps Research Institute Molecular Screening Center, 2011) can be followed below.

In this experiment the target is Melanocortin receptor 4 (Homo sapiens) (UniProt P32245). Nature of the experiment: activators of MC4R beta-arrestin recruitment – cell-based, luminescence, agonist arm of biased-ligand search, primary screen (AID 540308). Particulars: U2OS MC4R beta-arrestin complementation, at 8.9 µM, hits give high values, percent of melanotan II response, DMSO zero. For orientation: Recruitment of arrestin is a read-out of receptor activation apart from second messengers.
In the case of `CCC(=O)N(c1ccccc1)C1(COC)CCN(CCn2nnn(CC)c2=O)CC1`, the activation is inactive: -2.58%.

Take `CCC(=O)N(c1ccccc1)C1(COC)CCN(CCc2cccs2)CC1`: the activation is inactive: -0.1%.
